Assay outcomes from PubChem BioAssay.
The list is not random: actives were taken first. Their share in the collection is about 16%.
DT40 TDP1 CPT: growth inhibition of DT40 Tdp1-/-;hTDP1 cells with camptothecin (screen for TDP1 inhibitors) | chicken DT40 Tdp1-/-;hTDP1 cells + 20 nM CPT, ATP luminescence, 48 h | Potency, µM (top dose mostly 46.2 µM), most hits filed as inhibitors | actives 12% (n = 420,000) | AID 686979; further: nearly all actives have a fitted effect of over 55% in size
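Cell growth measured by CellTiter-Glo luminescence after a minimum 48 h, 37 C compound exposure with 20 nM CPT in Tdp1-knockout DT40 cells stably expressing hTDP1, seeded 400/well; qHTS titration format.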
miR-21 FLuc: miR-21 reporter, rising signal | HeLa miR-21 FLuc reporter, luciferase, 48 h | Potency, µM (top dose mostly 38.3 µM) | 340,000 tested, under 10 active | AID 2288; active = well fitted rising curve with a large enough effect; inconclusive = small, poorly fitted or top-dose-only effect; inactive = no such curve, though single readings can be large or run the other way;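 note: miR-21 action dims this reporter so a rising signal means less miR-21 action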
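Using DMEM plus 10% FBS, HeLa miR-21-FLuc cells are incubated with test compounds (final up to about 40uM) for 48 hours; firefly luciferase signal is then imaged following reagent-mediated lysis.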
DT40 TDP1 no CPT: qHTS for Inhibitors of human tyrosyl-DNA phosphodiesterase 1 (TDP1): qHTS in cells in absence of CPT | DT40 Tdp1-/- hTDP1 cells, no CPT, ATP luminescence, 48 h | Potency, µM (top dose mostly 46.2 µM), most hits filed as inhibitors | actives 15% (n = 420,000) | AID 686978, 2013; further: nearly all actives have a fitted effect of over 55% in size
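Readout: luminescence from CellTiter-Glo after 30 min in the dark at RT. Cells: DT40 Tdp1-/- with stable hTDP1, 400/well. Exposure: compounds alone, ≥48 hr, 37 °C.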
TDP1 block: TDP1 (human) enzyme inhibition. Q9NUW8. recombinant TDP1, AlphaScreen DNA substrate cleavage. Potency, µM (doses to about 130 µM), hits mostly inhibitors. actives 0.28% (n = 350,000). AID 485290; further: nearly all actives have a fitted effect of over 40% in size
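E. coli-derived human Tdp1, 1 nM final. Cpd preinc 15 min RT; substrate 15 nM final, 5 min RT; AS bead mix 10 ug/ml final, 10 min RT. Signal loss = tyrosine-FITC cleavage. No-enzyme wells = max signal.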
uPA surface inh: inhibitors of cell surface uPA generation; AID 540303; actives 0.31% (n = 330,000); cell surface uPA generation assay, qHTS; Potency, µM (titrated, usually from 38.3 µM), most hits filed as inhibitors; active means well fitted inhibition curve with a large enough effect; inconclusive means small, poorly fitted or top-dose-only effect; inactive means no such curve, though single readings can be large or run the other way; tested in mouse RAW 264.7 cells; further: nearly all actives have a fitted effect of over 55% in size
Numbers stand for hits; - = inactive; ? = inconclusive; . = no result. Unless noted, the call rests on the fitted dose curve; in most records, active means well fitted curve in the direction sought with a large enough effect; inconclusive means small, poorly fitted or top-dose-only effect, or another doubt; inactive means no such curve, though single readings can be large; an effect the other way counts as inactive or inconclusive.

SMILES	DT40 TDP1 CPT	miR-21 FLuc	DT40 TDP1 no CPT	TDP1 block	uPA surface inh
COc1ccc(S(=O)(=O)NCC(c2ccco2)N2CCN(c3ccccc3F)CC2)cc1C (centres undefined)	20.6µM	-	18.4µM	-	.
COc1ccc(N2CCN(C(CNS(=O)(=O)c3ccc4c(c3)OCCO4)c3ccco3)CC2)cc1 (centres undefined)	13µM	?	?	-	-
O=S(=O)(NCC(c1ccco1)N1CCN(c2ccccc2F)CC1)c1ccccc1 (centres undefined)	-	-	?	-	-
COc1ccc(S(=O)(=O)NCC(c2ccco2)N2CCN(c3ccc(F)cc3)CC2)cc1 (centres undefined)	?	-	?	-	.
COc1ccc(Cc2noc(CN3CCN(Cc4cccc(Cl)c4)CC3)n2)cc1OC	?	-	10.3µM	.	-
COc1ccc(Cc2noc(CN3CCN(c4ccc(Cl)cn4)CC3)n2)cc1OC	?	-	18.4µM	-	-
COCCN1CCN(Cc2nc(Cc3ccc(OC)c(OC)c3)no2)CC1	-	-	-	-	-
COc1cc(/C=C(\NC(=O)c2ccccc2)C(=O)N2CC3CC(C2)c2cccc(=O)n2C3)cc(OC)c1OC (centres undefined)	-	-	-	.	-
O=C(NC(=S)Nc1ccccc1[N+](=O)[O-])c1cncc(Br)c1	-	-	-	.	-
CCCCCCSc1ccc([C@@H]2[C@H]3C(=O)N(CC)C(=O)[C@H]3[C@]3(C(=O)OC)CCCN23)cc1	20.6µM	.	?	-	-
CCCSc1ccc([C@@H]2[C@H]3C(=O)N(CC)C(=O)[C@H]3[C@]3(C(=O)OC)CCCCN23)cc1	?	.	16.4µM	-	-
CCCCCCSc1ccc([C@@H]2[C@@H]3C(=O)N(C)C(=O)[C@@H]3[C@]3(C(=O)OC)CCCCN23)cc1	9.2µM	.	25.9µM	-	-
CCc1c(C)sc(NC(=O)C2CC2c2ccccc2)c1C(N)=O (centres undefined)	-	-	?	-	-
CCOC(=O)C1=C(C)Nc2nc(C)nn2C1c1ccc(OCC)c(OC)c1 (centres undefined)	-	-	-	.	-
Cc1ccc2nc(NC(=O)c3ccccc3F)sc2c1	-	-	?	.	-
CCOc1ccc(C(=O)Nc2ccc3nc(N(CC)CC)cc(C)c3c2)cc1	18.4µM	-	?	-	.
CCN(CC)c1cc(C)c2cc(NC(=O)c3cccc(OC)c3)ccc2n1	?	-	?	-	.
CCN(CC)c1cc(C)c2cc(NC(=O)c3cccc(OC)c3OC)ccc2n1	16.4µM	?	6.51µM	-	.
CCOc1ccc(NC(=O)c2ccccc2C(=O)c2ccccc2)cc1OCC	?	-	?	.	-
CCN(CC)c1cc(C)c2cc(NC(=O)c3ccccc3F)ccc2n1	20.6µM	-	29.1µM	.	-
CCOc1ccccc1C(=O)Nc1ccc2nc(N(CC)CC)cc(C)c2c1	20.6µM	-	20.6µM	-	.
COc1ccc(C(=O)Nc2cccc(C(C)=O)c2)c(OC)c1OC	-	-	?	-	-
CC1CC(C)CN(C(=O)CNS(=O)(=O)c2cccs2)C1 (centres undefined)	-	-	-	-	-
CC1CC2OC2/C=C\C=C/C(=O)Cc2c(Cl)c(O)cc(O)c2C(=O)O1 (centres undefined)	.	.	.	-	.
CCc1cccc(NC(c2ccccc2)c2nnc(-c3ccccc3F)o2)c1 (centres undefined)	?	-	20.6µM	-	.
SMILES	DT40 TDP1 CPT	miR-21 FLuc	DT40 TDP1 no CPT	TDP1 block	uPA surface inh
Cc1ccc(C)c(NC(c2ccccc2)c2nnc(-c3ccccc3F)o2)c1 (centres undefined)	?	-	?	-	.
C[C@H](O)[C@@H]1C(=O)N2CCc3ccc(N4CCN(C)CC4)cc3[C@@H]2C[C@@H]1N(C)C(=O)c1ccc(C#N)cc1	-	.	-	.	-
COc1ccc(OC)c(CNC(=O)Cn2nc(C)c3nn(-c4ccc(Cl)cc4)c(C)c3c2=O)c1	23.1µM	-	18.4µM	-	.
COc1ccc(OC)c(CCNC(=O)Cn2nc(C)c3c(C)n(-c4ccc(C)cc4)nc3c2=O)c1	-	-	14.6µM	.	-
COc1ccc(OC)c2c1sc(=NC(=O)C(C)C)n2C	23.1µM	-	?	-	-
COc1ccc(OC)c2c1sc(=NC(=O)C(C)(C)C)n2C	20.6µM	-	?	-	-
CCCC(=O)N=c1sc2c(OC)ccc(OC)c2n1C	-	-	-	-	-
COc1ccc(C2=NN(c3nc(C(=O)O)cs3)C(O)(C(F)(F)F)C2)c(OC)c1 (centres undefined)	-	-	-	-	-
C=CCNc1nc(NCc2ccccc2)c(C#N)c2c1CN(C)CC2	18.4µM	-	?	-	-
CCN1CCc2c(C#N)c(NCc3ccccc3)nc(N(CC)CC)c2C1	?	-	18.4µM	-	-
Cc1cc(N(C)C)c(C#N)c(NCc2ccccc2)n1	-	-	-	-	-
O=C1C=Cc2ccccc2/C1=C/c1[nH]c(=O)[nH]c1O	-	-	?	-	-
O=C(Nc1ccnn1C1CCN(Cc2cccc(F)c2F)CC1)C1CCCC1	-	-	-	-	-
COc1ccc(C)cc1NC(=O)CSc1nc2scc(C)c2c(=O)[nH]1	?	-	-	-	-
CCN(CC)CC(=O)Nc1c2c(nc3ccccc13)N(C)CC2	-	-	-	.	-
CCOC(=O)c1c[nH]c2c([N+](=O)[O-])cc(OC)cc2c1=O	7.31µM	.	16.4µM	.	-
CCOC(=O)c1c[nH]c2ccc([N+](=O)[O-])cc12	-	.	?	.	-
Cc1ccc(S(=O)(=O)NCC(C)NS(=O)(=O)c2ccccc2[N+](=O)[O-])cc1 (centres undefined)	-	-	-	.	-
CN1C[C@@H]2[C@@H]3C(=O)N(Cc4ccccc4)C(=O)[C@@H]3[C@](C)(C1=O)N2C(=O)c1ccc(C(F)(F)F)cc1	-	.	-	.	-
On1onc2c3cc(-c4ccccc4)nc3ccc21	2.91µM	-	5.17µM	-	-
c1ccc(-c2cc3c(ccc4nonc43)nn2)cc1	?	-	?	-	-
O=C(NNCNNC(=O)c1ccncc1)c1ccncc1	?	.	?	-	.
Cc1cccc(C)c1NS(=O)(=O)c1ccc2c(c1)NC(=O)CO2	-	-	-	-	-
O=C1COc2ccc(-c3csc(=Nc4ccc(OC(F)F)cc4)n3CC3CCCO3)cc2N1 (centres undefined)	?	-	16.4µM	-	.
Cc1ccc2nc(-c3ccc4c(c3)NC(=O)CO4)cn2c1	-	-	?	-	-
COc1ccccc1N=c1scc(-c2ccc3c(c2)NC(=O)CO3)n1CC1CCCO1 (centres undefined)	-	-	18.4µM	-	-
COc1ccccc1CNS(=O)(=O)c1ccc2c(c1)NC(=O)CO2	-	-	-	-	-
